This is a sample that favours compounds with a hit; in the whole collection about 4.2% have one here.
NALP1 inh – inhibitors of NALP1 inflammasome in yeast | S. cerevisiae NALP1/ASC/caspase-1 growth, X-gal OD620, 72 h | hit rate 0.61% among 280,000 | inhibition, % at 10 µM; in the data active means inhibition mostly above about 24%, no sharp cut-off; inactive means mostly below about 32%
UUG fidelity – modulators of yeast start codon fidelity, primary screen, whole organism, S. cerevisiae, single point, plate reader | AID 602363, 2012 | actives 0.13% (n = 350,000) | activity score, % at 18.7 µM | S. cerevisiae UUG-firefly luciferase reporter, luminescence/redox ratio;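 active means replicate mean at a twofold rise or more, about +100% in these data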;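 further: firefly luciferase made from a UUG start codon reports start codon fidelity; reporter light over untreated wells divided by growth signal over untreated wells; some hits fall short of that in this replicate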
HDAC3 inh – human HDAC3 inhibition. O15379. recombinant HDAC3, fluorogenic peptide/trypsin coupled, fluorescence. hit rate 0.15% among 320,000. inhibition, % at 8.3 µM; in the data active means inhibition above about 26%, passing the limit was not always enough; inconclusive means no clear call, values can overlap the other calls
MC4R antagonist – human MC4R antagonism in cAMP assay | hit rate 0.48% among 360,000 | AID 540295 | P32245 | MC4R-expressing cells, MTII-stimulated cAMP, LANCE TR-FRET | inhibition, % at 6.5 µM;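 active means inhibition above its plate's cutoff, the mean of tested wells on that plate plus 3 SD, cut at about 29% in these data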;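 further: 0% = Melanotan II alone and 100% = Melanotan II plus saturating MCL0020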
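Test system: U2OS cells stably expressing human melanocortin 4 receptor (MC4R); also added: Melanotan II challenge; compound: 6.5 µM single dose; timing: 30-min compound preincubation, 1-h Melanotan II challenge, 1-h detection, room temperature; signal: Eu-cAMP/anti-cAMP TR-FRET, emission 671 nm; repeats: one well per compound, no replicates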
MC4R ag barr – human MC4R agonism via beta-arrestin | P32245 | U2OS MC4R beta-arrestin complementation, luminescence; percent of melanotan II response, DMSO zero | activation, % at 8.9 µM | hit rate 0.98% among 360,000 | AID 540308;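 active means activation above a per-plate cutoff, the mean activation of sample wells on that plate plus 3 SD, cut at about 8% in these data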
ALR inh – inhibitors of human ALR sulfhydryl oxidase, primary screen, biochemical, H2O2 detection, HRP-luminol luminescence, single point; FAD-linked sulfhydryl oxidase ALR (Homo sapiens), P55789; purified ALR, DTT oxidation; inhibition, % (concentration not given with the values); 290,000 compounds, 3.8% hits; AID 485317, 2010;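 active = mean and each replicate at 75% or more; inconclusive = only one of the two met; inactive = neither met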;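 note: stock transfer was 7.5 nL into about 7.5 µL; 0% = neutral wells and 100% = wells with inactivated enzyme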
Numbers without * were called inactive; ? = inconclusive; . = no result given.

NALP1 inh,structure,UUG fidelity,HDAC3 inh,MC4R antagonist,MC4R ag barr,ALR inh
19,CC[C@@]1(c2cccc(C)c2)C(=O)N(C(=O)OC)N1C(=O)OC,-18,18,3,-1,83*
2,Cc1c2c(nc3ccccc13)CC(C)(C)CC2=O,.,2,8,0,94*
3,COc1ccc(-c2nc(-c3ccccc3)c(-c3cc([N+](=O)[O-])ccc3C)[nH]2)cc1O,-13,9,10,0,62
-13,COc1ccc([N+](=O)[O-])cc1-c1[nH]c(-c2ccc(C(=O)O)cc2)nc1-c1ccccc1,-9,6,5,-2,98*
-1,Cc1ccc([N+](=O)[O-])cc1-c1[nH]c(-c2ccc(O)c(O)c2)nc1-c1ccccc1,-15,1,3,5,97*
39,COc1ccc(-c2nc3ccc([N+](=O)[O-])cc3[nH]2)cc1,.,8,4,-4,.
.,CN1C(=O)c2cc(NC(=O)c3ccc(Cl)cc3)ccc2OC[C@@H]2O[C@H](CC(=O)NCc3cccc(F)c3)CC[C@H]21,-11,.,.,.,.
14,O=C(Oc1ccc([N+](=O)[O-])cc1)c1cccnc1,.,32*,1,-1,12
10,COc1ccc(CCNC(=O)c2cc(-c3cc(C)ccc3O)n[nH]2)cc1OC,2,?,19,1,96*
.,COc1cccc(S(=O)(=O)N[C@@H]2C=C[C@@H](CC(=O)NCc3ccc(F)cc3)O[C@@H]2CO)c1,-2,.,.,.,.
42*,CCCn1c(=O)c2ccccc2n2c(SCC(=O)c3ccc(F)cc3)nnc12,.,.,.,.,.
-8,CCOc1cccc(-c2cc(C(=O)NN)[nH]n2)c1,.,-6,-2,-2,79*
-36,COC(=O)c1cc(-c2cccc(OC)c2)n[nH]1,-10,8,4,-2,8
28*,Cc1cc(C)c2cc(CN(CCN(C)C)C(=O)Nc3ccccc3Cl)c(=O)[nH]c2c1,.,-5,0,0,0
.,CN(C)c1ccc(/C=C2\SC(=O)N(CCc3nnc(N)s3)C2=O)cc1,.,1,-14,2,97*
.,C[C@@H]1CN([C@H](C)CO)S(=O)(=O)c2ccc(C#CC(C)(C)O)cc2O[C@@H]1CN(C)C(=O)C1CCCCC1,3,.,.,.,.
-6,O=C(c1cc2ccccc2o1)N1CCN=C1SCc1cccc(F)c1,-3,-6,0,-1,-42
0,O=C(c1cc2ccccc2o1)N1CCN=C1SCc1cccnc1,-17,-4,12,-2,99*
12,O=C(c1ccc(Br)o1)N1CCN=C1SCc1cccnc1,-12,2,1,0,100*
24,CSC1=NCCN1C(=O)c1ccc(Br)o1,-14,1,2,-1,3
.,CCCc1cn(CC[C@H]2CC[C@H](NC(=O)CCN3CCCCC3)[C@@H](CO)O2)nn1,-10,.,.,.,.
8,Cc1cccc(N2CCN(c3ccc(NC(=O)/C=C(/C(=O)O)c4ccccc4)cc3)CC2)c1,-16,-2,-1,-2,96*
18,CC(=O)N1CCN(c2ccc(NC(=O)c3cccc(C)c3)cc2)CC1,-6,0,0,4,7
43,Cc1ccc2nc3c(c(Nc4ccc5c(c4)OCCO5)c2c1)CCC3,-13,-4,-6,0,98*
24,CC1Cc2nc(SCC(=O)c3ccccc3)n(Cc3ccccc3)c(=O)c2S1 (stereo unspecified),-9,14,3,-2,50
1,CC1Cc2nc(SCC(=O)N3CCc4ccccc43)n(C)c(=O)c2S1 (stereo unspecified),.,?,-6,1,98*
12,CC1Cc2nc(SCC(=O)N3CCOCC3)n(C)c(=O)c2S1 (stereo unspecified),-1,-3,-2,-1,25
38,CC1Cc2nc(SCC(=O)Nc3nc4ccccc4s3)n(C)c(=O)c2S1 (stereo unspecified),-4,8,4,-1,99*
.,CC1Cc2nc(SCC(=O)OCc3ccccc3)n(C)c(=O)c2S1 (stereo unspecified),-9,14,-1,0,99*
9,CCc1nnc(NC(=O)CSc2nc3c(c(=O)n2C)SC(C)C3)s1 (stereo unspecified),-4,0,7,-1,-28

6 compounds already listed, arranged by the value under HDAC3 inh, highest first:
| smiles | HDAC3 inh |
| --- | --- |
| CC1Cc2nc(SCC(=O)c3ccccc3)n(Cc3ccccc3)c(=O)c2S1 (stereo unspecified) | 14 |
| O=C(c1ccc(Br)o1)N1CCN=C1SCc1cccnc1 | 2 |
| Cc1ccc([N+](=O)[O-])cc1-c1[nH]c(-c2ccc(O)c(O)c2)nc1-c1ccccc1 | 1 |
| CCc1nnc(NC(=O)CSc2nc3c(c(=O)n2C)SC(C)C3)s1 (stereo unspecified) | 0 |
| O=C(c1cc2ccccc2o1)N1CCN=C1SCc1cccnc1 | -4 |
| Cc1cc(C)c2cc(CN(CCN(C)C)C(=O)Nc3ccccc3Cl)c(=O)[nH]c2c1 | -5 |

The listing picks up with the two entries that preceded the break.
NALP1 inh,structure,UUG fidelity,HDAC3 inh,MC4R antagonist,MC4R ag barr,ALR inh
.,CC1Cc2nc(SCC(=O)OCc3ccccc3)n(C)c(=O)c2S1 (stereo unspecified),-9,14,-1,0,99*
9,CCc1nnc(NC(=O)CSc2nc3c(c(=O)n2C)SC(C)C3)s1 (stereo unspecified),-4,0,7,-1,-28
.,COc1ccc(S(=O)(=O)N[C@H]2C=C[C@H](CC(=O)NCc3ccccc3F)O[C@H]2CO)cc1,-5,.,.,.,.
.,CCCNC(=O)C[C@@H]1C[C@@H]2c3cc(NS(=O)(=O)c4ccc(OC)cc4)ccc3O[C@@H]2[C@H](CO)O1,-13,.,.,.,.
.,C[C@H]1CN([C@@H](C)CO)S(=O)(=O)c2ccc(-c3ccccc3F)cc2O[C@H]1CN(C)Cc1cncnc1,-7,.,.,.,.
26,Cc1ccccc1-n1nc(-c2ccc(N)cc2)cc1N,-14,4,4,-1,?
22,Cc1ccc(-n2nc(-c3ccc(N)cc3)cc2N)cc1,-2,0,0,0,98*
-16,Nc1ccc(-c2cc(N)n(-c3ccccc3)n2)cc1,-13,-1,3,-1,93*
.,O=C(C[C@H]1CC[C@H]2[C@@H](COC[C@H](O)CN2C(=O)Nc2ccccc2)O1)NCc1ccncn1,23,.,.,.,.
73*,O=C(COc1ccc([N+](=O)[O-])cc1Cl)NCCc1ccccc1,7,8,7,1,-6
.,O=C(COC(=O)c1cc([N+](=O)[O-])ccc1Cl)NCCc1ccccc1,.,2,2,-2,39
-2,NC1=NN=C(c2ccc3c(c2)OCCO3)CS1,-73,49*,8,0,99*
13,Cc1sc(N)nc1-c1ccc2c(c1)OCCO2,-14,4,-3,0,59
20,Cc1ccc(S(=O)(=O)ON2C(=O)c3ccccc3C2=O)c(C)c1,.,59*,-1,-1,45
1,Cn1ccnc1SCC(=O)Nc1cccc([N+](=O)[O-])c1,-18,2,4,2,-7
12,Cn1c(CO)cnc1SCc1ccc([N+](=O)[O-])cc1,-23,-2,-5,-1,.
38,Cn1ccnc1SCc1ccc([N+](=O)[O-])cc1,.,6,2,1,99*
-6,Cn1ccnc1SCc1cccc([N+](=O)[O-])c1,-19,6,-4,-2,98*
17,CC(C)OC(=O)c1sc2nc(-c3ccccc3)ccc2c1N,-26,-4,7,9.5*,-2
40,COc1ccc(C(=O)c2sc3nc(-c4ccccc4)ccc3c2N)cc1,.,-3,24,1,-2
-11,COC(=O)c1sc2nc(-c3ccco3)ccc2c1N,-27,16,6,-1,98*
15,Cc1cc(OCCn2cc(/C(N)=N/O)c3ccccc32)ccc1Cl,-7,17,-4,8.8*,10

Screening data (PubChem)
